Assay outcomes deposited in PubChem BioAssay by Broad Institute.
This is a sample that favours compounds with a hit; in the whole collection about 1.5% have one here.
INS-1E GSIS act: GLuc luminescence reporter in INS-1E cells, primary screen for activators of glucose-dependent secretion of insulin; activation, % at 16.6 µM; AID 743287; 0.61% of 370,000 active; INS-1E GLuc reporter insulin secretion, 2-3 h;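 active means lowest replicate activation of at least 40%, so every replicate reaches that level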;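 further: 0% = median of neutral control wells and 100% = median of IBMX positive control wells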
CASP6 VEID inh: blocks human caspase-6 cleavage activity; P55212; purified caspase-6, Z-VEID-R110 cleavage fluorescence; inhibition, % at 12.5 µM; 0.53% of 350,000 active;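 active means mean inhibition across replicates at least about 35%, with every replicate also reaching that limit, limit read from the data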;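 further: 0% = median of neutral control wells and 100% = no fluorescence left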
RAD54 inh: RAD54 (human) branch migration inhibition; RAD54 Holliday junction branch migration, FAM/BHQ fluorescence; inhibition, % at 10.4 µM; 0.14% of 360,000 active; AID 602329;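 active means mean normalized replicate activity at least 40 and at least half of replicates scoring 40 or more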;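 further: 0% = median of neutral control wells and 100% = median of positive control wells; inhibitors cause a drop in the FAM fluorescence signal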
PglD inh: blocks C. jejuni PglD acetyltransferase activity; inhibition, % at 12.5 µM; 0.098% of 360,000 active; purified PglD enzyme, DTNB colorimetric CoA detection; in the data active means inhibition above about 16%, passing the limit was not always enough
UUG fidelity: modulators of yeast start codon fidelity, primary screen, whole organism, S. cerevisiae, single point, plate reader | AID 602363, 2012 | actives 0.13% (n = 350,000) | activity score, % at 18.7 µM | S. cerevisiae UUG-firefly luciferase reporter, luminescence/redox ratio;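 active means replicate mean at a twofold rise or more, about +100% in these data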;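 further: firefly luciferase made from a UUG start codon reports start codon fidelity; reporter light over untreated wells divided by growth signal over untreated wells; some hits fall short of that in this replicate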
RAD52 inh: blocks human RAD52 DNA annealing | recombinant RAD52 DNA annealing, FRET fluorescence | AID 651710 | 0.46% of 360,000 active | P43351 | inhibition, % at 18.7 µM;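 active means every replicate showing at least 50% inhibition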
The depositor's hits bear a star.

Preview:
For CO[C@@H]1CN(C)C(=O)c2cc(NS(C)(=O)=O)ccc2OC[C@H](C)N(C(=O)CN(C)C)C[C@H]1C the results were INS-1E GSIS act -9.0, CASP6 VEID inh 0.0, RAD54 inh 0.8, PglD inh 0.7, UUG fidelity -13.5 and RAD52 inh 11.5.
Screening Cc1nn(C(C)C(=O)c2cccc(Cl)c2)c(C)c1[N+](=O)[O-] (configuration not stated) returned INS-1E GSIS act -11.3, CASP6 VEID inh 0.7 and RAD52 inh -3.3.

This part in full, previewed entries included:
For CO[C@@H]1CN(C)C(=O)c2cc(NS(C)(=O)=O)ccc2OC[C@H](C)N(C(=O)CN(C)C)C[C@H]1C the results were INS-1E GSIS act -9.0, CASP6 VEID inh 0.0, RAD54 inh 0.8, PglD inh 0.7, UUG fidelity -13.5 and RAD52 inh 11.5.
Screening Cc1nn(C(C)C(=O)c2cccc(Cl)c2)c(C)c1[N+](=O)[O-] (configuration not stated) returned INS-1E GSIS act -11.3, CASP6 VEID inh 0.7 and RAD52 inh -3.3.
Screening Cn1cnc([N+](=O)[O-])c1NCc1ccccc1 returned INS-1E GSIS act -6.3, CASP6 VEID inh -0.5, RAD54 inh 6.7, PglD inh -1.9, UUG fidelity 2.9 and RAD52 inh -9.3.
`CN(C)c1c([N+](=O)[O-])ncn1C` gave RAD54 inh 0.4, PglD inh -1.4 and UUG fidelity -2.0.
`Cn1cnc([N+](=O)[O-])c1S(=O)(=O)Nc1ccccc1` gave INS-1E GSIS act -8.9, CASP6 VEID inh 42.3*, RAD54 inh 3.4, PglD inh -1.9, UUG fidelity -17.4 and RAD52 inh -2.7.
Cn1cnc([N+](=O)[O-])c1S(=O)(=O)c1cccc(Cl)c1 was read as INS-1E GSIS act 104.1*, CASP6 VEID inh -1.1 and RAD52 inh -1.8.
Cn1cnc([N+](=O)[O-])c1S(=O)(=O)Oc1ccccc1 was read as INS-1E GSIS act 53.8*, CASP6 VEID inh 24.5, RAD54 inh 7.5, PglD inh -2.3, UUG fidelity -30.1 and RAD52 inh -3.7.
For CC(=O)N1CCc2c(sc(NC(=O)Cc3ccccc3)c2C(N)=O)C1 the results were INS-1E GSIS act 1.8, CASP6 VEID inh 66.8*, RAD54 inh -20.9, PglD inh -1.9, UUG fidelity -4.4 and RAD52 inh -17.9.
Screening CC(=O)N1CCc2c(sc(NC(=O)C3CCCCC3)c2C(N)=O)C1 returned INS-1E GSIS act -0.9, CASP6 VEID inh 74.9*, RAD54 inh -3.7, PglD inh 1.0, UUG fidelity 2.0 and RAD52 inh -67.5.
COC(=O)c1c(NC(=O)C2CC2)sc2c1CCN(C(C)=O)C2 was read as CASP6 VEID inh 3.3, RAD54 inh 1.2, PglD inh 3.7, UUG fidelity -12.6 and RAD52 inh 4.5.

3 entries out of the list, ordered by molecular weight, smallest number first:
`Cn1cnc([N+](=O)[O-])c1S(=O)(=O)Nc1ccccc1` gave INS-1E GSIS act -8.9, CASP6 VEID inh 42.3*, RAD54 inh 3.4, PglD inh -1.9, UUG fidelity -17.4 and RAD52 inh -2.7.
Cn1cnc([N+](=O)[O-])c1S(=O)(=O)c1cccc(Cl)c1 was read as INS-1E GSIS act 104.1*, CASP6 VEID inh -1.1 and RAD52 inh -1.8.
For CC(=O)N1CCc2c(sc(NC(=O)Cc3ccccc3)c2C(N)=O)C1 the results were INS-1E GSIS act 1.8, CASP6 VEID inh 66.8*, RAD54 inh -20.9, PglD inh -1.9, UUG fidelity -4.4 and RAD52 inh -17.9.

Continuation.
`O=S(=O)(c1ccc(Cl)nc1)N1CCc2ccccc21` gave INS-1E GSIS act 54.0*, CASP6 VEID inh -1.3, RAD54 inh -5.4, PglD inh -0.1, UUG fidelity -0.6 and RAD52 inh -6.9.
Screening O=S(=O)(c1ccc(Cl)nc1)N1CCCc2ccccc21 returned INS-1E GSIS act 13.7.
For C[C@@H]1CCCCO[C@@H](CN(C)C)[C@H](C)CN([C@H](C)CO)C(=O)c2cc(NC(=O)c3ccccc3)ccc2O1 the results were INS-1E GSIS act 13.9.
For CCOC(=O)C1=C(C)NC2=C(C(=O)CC(C)(C)C2)C1c1ccc(O)c(OCC)c1 (configuration not stated) the results were INS-1E GSIS act 23.6, CASP6 VEID inh 3.2, PglD inh 5.3, UUG fidelity -13.8 and RAD52 inh 5.4.
`CCOc1cc(C2C3=C(CC(C)(C)CC3=O)Nc3n[nH]c(C)c32)ccc1O` (configuration not stated) gave INS-1E GSIS act 42.8*, CASP6 VEID inh 2.3 and RAD52 inh -16.1.
For COc1cc(CN2CCc3ccccc3C2)cc([N+](=O)[O-])c1O the results were INS-1E GSIS act 11.0, CASP6 VEID inh 47.4*, RAD54 inh 4.6, PglD inh 5.3, UUG fidelity -24.7 and RAD52 inh 0.8.
Screening CCOc1cc(CN2CCCC(N3CCc4ccccc4C3)C2)ccc1O (configuration not stated) returned CASP6 VEID inh -11.5, RAD54 inh -6.8, PglD inh 6.3, UUG fidelity -8.3 and RAD52 inh 1.5.
COc1cc(CN2CCCCCC2)cc([N+](=O)[O-])c1O was read as INS-1E GSIS act 1.4, CASP6 VEID inh -0.1, RAD54 inh -2.6, PglD inh 3.3, UUG fidelity -4.6 and RAD52 inh -10.7.
For COc1cc(CN2CCc3ccccc3C2)ccc1O the results were INS-1E GSIS act 77.3*, CASP6 VEID inh 0.5 and RAD52 inh -3.0.
For CC(C)(C)c1nnc(NC(=O)c2ccc(Cl)nc2)s1 the results were INS-1E GSIS act 7.2, CASP6 VEID inh -0.3 and RAD52 inh -9.0.
`CC1=NN(c2ccccc2)C(=O)/C1=C\c1cc(C)n(-c2ccccc2)c1C` gave CASP6 VEID inh -1.6 and RAD52 inh -57.2.
Screening COc1cc(NC(=O)C2CC3CCC2C3)c(OC)cc1Cl (configuration not stated) returned INS-1E GSIS act -33.7, CASP6 VEID inh 1.0, RAD54 inh -5.3, PglD inh -4.8, UUG fidelity -10.5 and RAD52 inh -0.4.
`Cc1ccc(S(=O)(=O)OCC(=O)Nc2ccc(C(=O)O)c(O)c2)cc1` gave INS-1E GSIS act -2.7, CASP6 VEID inh 79.1* and RAD52 inh -56.3.
CCNC(=O)NC(=O)C(C)OC(=O)c1oc2ccccc2c1CSC1CCCCC1 (configuration not stated) was read as INS-1E GSIS act 108.0*, RAD54 inh 1.5, PglD inh -0.5 and UUG fidelity 2.2.
CC1(C(=O)NS(=O)(=O)c2ccc(Cl)cc2)CCN1C(=O)C1(c2ccccc2)CCCC1 (configuration not stated) was read as CASP6 VEID inh 2.0, RAD54 inh -5.0, PglD inh 7.6, UUG fidelity -8.0 and RAD52 inh -7.4.
For CC1(C(=O)NS(=O)(=O)c2ccc(C#N)cc2)CCN1C(=O)C1(c2ccccc2)CCCC1 (configuration not stated) the results were INS-1E GSIS act 98.8*, CASP6 VEID inh 3.2, RAD54 inh 9.1, PglD inh 8.6, UUG fidelity -1.6 and RAD52 inh -7.9.
For CS(=O)(=O)N(Cc1ccc(Cl)cc1)c1ccc(C(=O)NCCC2=CCCCC2)cc1 the results were INS-1E GSIS act 79.9*, RAD54 inh 10.3, PglD inh -13.5 and UUG fidelity -13.3.
CCCNC(=O)C1(C)CCCN(C(=O)c2ccc3sccc3c2)C1 (configuration not stated) was read as INS-1E GSIS act 34.3, CASP6 VEID inh -1.7, RAD54 inh -11.0, PglD inh -0.4, UUG fidelity -3.5 and RAD52 inh 8.6.
Screening COc1ccc(OCCN2CCC(C(=O)NC(c3ccccn3)c3ccccc3OC)CC2)cc1 (configuration not stated) returned INS-1E GSIS act -26.9, CASP6 VEID inh 49.2*, RAD54 inh -18.4, PglD inh 0.9, UUG fidelity -1.3 and RAD52 inh -7.0.
`COc1cccc(C(NC(=O)C2CCN(CCCOc3ccccc3)CC2)c2ccccn2)c1` (configuration not stated) gave CASP6 VEID inh 38.1*, RAD54 inh -6.9, PglD inh 3.1, UUG fidelity -15.8 and RAD52 inh -5.6.
